The values below come from publication PMC3929448.

The target in the assay is human insulin receptor, B isoform, expressed on CHO cells (CHO-hINSR-B) (human) (UniProt P06213). The assay is described as follows: flow cytometry on cells. For orientation: A flow cytometer gives signals particle by particle.

As usually defined, the EC50 is the concentration at which the effect is half-maximal. A higher EC50 goes with lower potency in that assay.

biotinylated human insulin (ligand): the EC50 turned out to be 125 nM.
